Assay [1] addresses T1, Calpain-1 catalytic subunit (Homo sapiens, UniProt P07384).
T1 sequence (P07384 whole entry): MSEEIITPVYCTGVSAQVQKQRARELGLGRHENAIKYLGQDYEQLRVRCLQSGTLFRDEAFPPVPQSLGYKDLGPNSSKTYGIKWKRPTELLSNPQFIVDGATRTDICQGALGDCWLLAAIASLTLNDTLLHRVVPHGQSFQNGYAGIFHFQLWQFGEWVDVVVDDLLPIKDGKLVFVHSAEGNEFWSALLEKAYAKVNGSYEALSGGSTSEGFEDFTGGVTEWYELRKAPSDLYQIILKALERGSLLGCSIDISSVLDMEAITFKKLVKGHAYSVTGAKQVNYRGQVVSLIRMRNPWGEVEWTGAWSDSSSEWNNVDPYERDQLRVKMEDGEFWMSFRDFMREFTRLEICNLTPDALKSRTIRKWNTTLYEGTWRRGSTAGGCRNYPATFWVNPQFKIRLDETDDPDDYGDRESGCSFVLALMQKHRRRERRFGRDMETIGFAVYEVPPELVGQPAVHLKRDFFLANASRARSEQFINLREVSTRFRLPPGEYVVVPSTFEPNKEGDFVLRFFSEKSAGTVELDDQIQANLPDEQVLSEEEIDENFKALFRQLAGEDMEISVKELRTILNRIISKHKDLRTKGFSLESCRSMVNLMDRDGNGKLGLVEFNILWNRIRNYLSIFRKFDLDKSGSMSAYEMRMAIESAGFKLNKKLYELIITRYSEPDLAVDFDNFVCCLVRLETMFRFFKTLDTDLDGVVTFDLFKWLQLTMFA
The assay is described as follows: In vitro inhibitory activity against recombinant human calpain 1.

The target in assay [2] is T1, Calpain-1 catalytic subunit. The assay is described as follows: Inhibitory activity tested against human calpain 1 in Molt-4 cells (intact human T-cell leukemia cell line). The class given is cell-based.

The structures appear in SMILES notation. pIC50: −log10 of the molar value.

As usually defined, the pIC50 is the IC50 on a negative log10 scale, so that one unit is a factor of ten. On to `CCN1C(C(=O)N[C@@H](Cc2ccccc2)C(=O)C(=O)NCc2ccccc2)Cc2cc3c(cc2S1(=O)=O)OCCO3` (stereo partly drawn), for which, in assay [1], the pIC50 is 7.09.

As to `CCN1C(C(=O)N[C@@H](Cc2ccccc2)C(=O)C(=O)NCC2CC2)Cc2cc3c(cc2S1(=O)=O)OCCO3` (stereo partly drawn), the pIC50 in assay [1] is 6.54.

With `CCCCNC(=O)C(=O)[C@H](Cc1ccccc1)NC(=O)C1Cc2cc3c(cc2S(=O)(=O)N1CC)OCCO3` (stereo in doubt), the pIC50 in assay [2] was 8.68.

(Values after ChEMBL document CHEMBL1146668, “1,2-Benzothiazine 1,1-dioxide alpha-ketoamide analogues as potent calpain I inhibitors” (Bioorg Med Chem Lett, 2004).)
